We go through 4 compounds from US8895695B2, “Template-fixed beta-hairpin peptidomimetics with CXCR4 antagonizing activity” (priority 2003, dated 2014).

Amino acid sequences for entries named in this document (tags omitted).
UniProt P61073, whole entry: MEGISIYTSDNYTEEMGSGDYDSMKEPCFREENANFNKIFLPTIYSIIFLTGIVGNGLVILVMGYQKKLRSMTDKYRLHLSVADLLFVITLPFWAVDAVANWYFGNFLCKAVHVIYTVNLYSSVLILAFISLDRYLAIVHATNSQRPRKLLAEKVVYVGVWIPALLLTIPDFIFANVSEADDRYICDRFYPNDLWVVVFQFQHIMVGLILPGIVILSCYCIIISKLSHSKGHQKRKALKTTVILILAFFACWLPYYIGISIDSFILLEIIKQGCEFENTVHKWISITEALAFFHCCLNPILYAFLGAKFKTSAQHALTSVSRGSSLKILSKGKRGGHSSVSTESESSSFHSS

This assay concerns the target CXCR4 (Homo sapiens, UniProt P61073). Nature of the assay: Ca2+-assay method 2 (Flexstation, SDF-1 induced calcium mobilization). Type of assay: cell-based. The arrangement: expressed in transfected cells; host or cells: mouse pre-B cell line 300-19. Conditions: IC50 (nM) Ca^2+ assay, method 2 (Ex. 54-160), mouse pre-B cell line 300-19 with human CXCR4, 10 nM SDF-1. As for the experimental part:
2.2. Ca^2+-Assay: CXCR4-Antagonizing Activity of the Peptides.
The cells were batch loaded with the Calcium 3 Assay kit (Molecular Devices) in assay buffer (Hanks Balanced salt solution, HBSS, 20 mM HEPES, pH 7.4, 0.1% BSA) for 1 h at room temperature and then 200,000 labeled cells were dispensed into black 96 well assays plates (Costar No. 3603). A 20-fold concentrated solution of peptide in assay buffer was added to the cells and the whole plate was centrifuged to settle the cells to the bottom of the wells. Calcium mobilization induced by 10 nM stromal-derived factor-1 (SDF-1) was measured in the Flexstation 384 (excitation, 485 nM; emission, 525 nM) for 90 seconds. A maximal change in fluorescence response above baseline was used to calculate antagonist activity. The data for dose response curves (antagonist concentration versus % maximum response) were fitted to a four parameter logistic equation using SoftmaxPro 4.6 (Molecular Devices), from which IC50% values were calculated.

As to `N=C(N)NCCC[C@@H]1NC(=O)[C@@H]2CSSC[C@H](NC(=O)[C@H](Cc3c[nH]c4ccccc34)NC(=O)[C@H](CCCNC(=N)N)NC(=O)[C@H](CCCNC(=N)N)NC(=O)[C@@H]3CCCN3C(=O)CNC1=O)C(=O)N[C@@H](Cc1ccc(O)cc1)C(=O)N[C@@H](CCC(N)=O)C(=O)N[C@@H](CCCCN)C(=O)NCC(=O)N[C@@H](Cc1ccc(O)cc1)C(=O)N1CCC[C@@H]1C(=O)N1CCC[C@H]1C(=O)N[C@@H](Cc1ccc(O)cc1)C(=O)NCC(=O)N[C@@H](Cc1ccc(O)cc1)C(=O)N[C@@H](CCCNC(=N)N)C(=O)N[C@@H](CCCNC(N)=O)C(=O)N2` [Ex. 158], the concentration for half-maximal inhibition (IC50) worked out at 250 nM.
Take `C[C@@H](O)[C@@H]1NC(=O)[C@H](CCCNC(=N)N)NC(=O)[C@H](Cc2ccc(O)cc2)NC(=O)CNC(=O)[C@H](Cc2ccc(O)cc2)NC(=O)[C@@H]2CCCN2C(=O)[C@H]2CCCN2C(=O)[C@H](Cc2ccc(O)cc2)NC(=O)CNC(=O)[C@H](CCCCN)NC(=O)[C@H](CCC(N)=O)NC(=O)[C@H](Cc2ccc(O)cc2)NC(=O)[C@@H]2CSSC[C@H](NC1=O)C(=O)N[C@@H](CCCNC(=N)N)C(=O)NCC(=O)N1CCC[C@H]1C(=O)N[C@@H](CCCNC(=N)N)C(=O)N[C@@H](CCCNC(=N)N)C(=O)N[C@@H](Cc1ccc(O)cc1)C(=O)N2` [Ex. 159]: the IC50 worked out at 118 nM.
As to `N=C(N)NCCC[C@@H]1NC(=O)[C@@H]2CSSC[C@H](NC(=O)[C@H](Cc3c[nH]c4ccccc34)NC(=O)[C@H](CCCNC(=N)N)NC(=O)[C@H](CCCNC(=N)N)NC(=O)[C@H]3CCCN3C(=O)CNC1=O)C(=O)N[C@@H](Cc1ccc(O)cc1)C(=O)N[C@@H](CCC(N)=O)C(=O)N[C@@H](CCCCN)C(=O)NCC(=O)N[C@@H](Cc1ccc(O)cc1)C(=O)N[C@@H](CCCCN)C(=O)NCC(=O)N[C@@H](Cc1ccc(O)cc1)C(=O)NCC(=O)N[C@@H](Cc1ccc(O)cc1)C(=O)N[C@@H](CCCNC(=N)N)C(=O)N[C@@H](CCCNC(N)=O)C(=O)N2` [Ex. 156], the IC50 was determined as 49 nM.
In the case of `N=C(N)NCCC[C@@H]1NC(=O)[C@@H]2CSSC[C@H](NC(=O)[C@H](Cc3c[nH]c4ccccc34)NC(=O)[C@H](CCCNC(=N)N)NC(=O)[C@H](CCCNC(=N)N)NC(=O)[C@H]3CCCN3C(=O)CNC1=O)C(=O)N[C@@H](Cc1ccc(O)cc1)C(=O)N[C@@H](CCC(N)=O)C(=O)N[C@@H](CCCCN)C(=O)NCC(=O)N[C@@H](Cc1ccc(O)cc1)C(=O)N[C@H](CCCCN)C(=O)NCC(=O)N[C@@H](Cc1ccc(O)cc1)C(=O)NCC(=O)N[C@@H](Cc1ccc(O)cc1)C(=O)N[C@@H](CCCNC(=N)N)C(=O)N[C@@H](CCCNC(N)=O)C(=O)N2` [Ex. 157], the half-inhibitory concentration (IC50) worked out at 11.3 nM.
